Measurements published in PMC8929351 (Pharmacology Research & Perspectives, 2022).

By UniProt entry, the sequences of proteins in these tests, tags left out.
UniProt P35372, whole entry N40D: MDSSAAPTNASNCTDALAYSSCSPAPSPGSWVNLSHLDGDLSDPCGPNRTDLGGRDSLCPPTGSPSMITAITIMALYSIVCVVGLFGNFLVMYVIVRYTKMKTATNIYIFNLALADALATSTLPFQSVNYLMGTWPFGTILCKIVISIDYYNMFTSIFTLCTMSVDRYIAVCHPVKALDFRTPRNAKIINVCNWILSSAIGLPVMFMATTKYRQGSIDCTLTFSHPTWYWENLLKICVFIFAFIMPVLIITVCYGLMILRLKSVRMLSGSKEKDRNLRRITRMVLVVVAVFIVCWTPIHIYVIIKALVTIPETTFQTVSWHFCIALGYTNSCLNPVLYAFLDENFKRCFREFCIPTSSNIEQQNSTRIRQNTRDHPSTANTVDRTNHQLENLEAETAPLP
UniProt P35372, whole entry: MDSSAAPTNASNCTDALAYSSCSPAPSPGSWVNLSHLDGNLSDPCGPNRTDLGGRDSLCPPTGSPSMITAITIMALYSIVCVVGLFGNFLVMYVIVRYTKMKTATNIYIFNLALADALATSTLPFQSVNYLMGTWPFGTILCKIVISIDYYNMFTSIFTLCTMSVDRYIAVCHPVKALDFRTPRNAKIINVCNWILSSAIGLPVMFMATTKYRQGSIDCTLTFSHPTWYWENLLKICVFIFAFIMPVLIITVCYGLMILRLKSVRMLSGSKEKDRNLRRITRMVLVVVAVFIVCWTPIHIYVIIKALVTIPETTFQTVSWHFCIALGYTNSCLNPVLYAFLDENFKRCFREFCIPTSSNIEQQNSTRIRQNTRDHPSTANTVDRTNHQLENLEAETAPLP
UniProt P35372, whole entry A6V: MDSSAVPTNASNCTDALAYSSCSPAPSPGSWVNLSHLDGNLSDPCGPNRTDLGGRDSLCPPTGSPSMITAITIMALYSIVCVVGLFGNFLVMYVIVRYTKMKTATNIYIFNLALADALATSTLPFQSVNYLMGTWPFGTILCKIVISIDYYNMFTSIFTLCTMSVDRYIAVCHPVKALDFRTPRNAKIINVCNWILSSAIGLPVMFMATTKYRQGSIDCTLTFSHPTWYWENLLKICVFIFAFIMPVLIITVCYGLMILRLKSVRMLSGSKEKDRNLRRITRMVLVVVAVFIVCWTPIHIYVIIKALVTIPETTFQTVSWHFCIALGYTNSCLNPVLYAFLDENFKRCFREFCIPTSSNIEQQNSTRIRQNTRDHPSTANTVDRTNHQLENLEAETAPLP

Tests used:
OPRM1 knock‐out mice = settings: mouse, in vivo; cited from earlier work
µ receptor = settings: operational model, five different studies; cited from earlier work
human µ receptor N40D = human µ receptor N40D (Homo sapiens, UniProt P35372, N40D); format: cell-based
[1] = target: human µ receptor wild‐type (WT) (Homo sapiens, UniProt P35372); format: cell-based
human µ receptor A6V = human µ receptor A6V (Homo sapiens, UniProt P35372, A6V); format: cell-based

Compound	analgesic effect (OPRM1 knock‐out mice)	average intrinsic efficacy relative to DAMGO (µ receptor)	Relative tau (intrinsic efficacy relative to DAMGO) (human µ receptor N40D)	pKA (human µ receptor N40D)	Relative tau (intrinsic efficacy relative to DAMGO) [1]	pKA [1]	Relative tau (intrinsic efficacy relative to DAMGO) (human µ receptor A6V)	pKA (human µ receptor A6V)
CN1CC[C@]23c4c5ccc(O)c4O[C@H]2[C@@H](O)C=C[C@H]3[C@H]1C5 [Morphine]	completely abolished	0.19 ± 0.08						
CN(C)C[C@H]1CCCC[C@]1(O)c1cccc(O)c1 [O‐Tramadol, O‐desmethyl tramadol]			0.03 ± 0.00	5.38 ± 0.34	0.08 ± 0.02	5.33 ± 0.4	0.08 ± 0.04	5.55 ± 0.3
